Literature values as cited in patent US20210207079A1, “PROCESS FOR PRODUCING CELL CULTURE MEDIA” (Merck Patent GmbH, priority 2015, published 2021).

Conditions: H2O at 25° C.; cited from earlier work

In the case of `O.O=C([O-])CC(O)(CC(=O)[O-])C(=O)[O-].[Fe+3]` [Iron(III)Citrate Hydrate, Fe(III) citrate hydrate], the “Dissolution (speed)” value is listed as “very slow”.
